Values of other authors, collected in paper PMC9945863 (2023).

Conditions: heterocyclic nitrogen basicity; cited from earlier work

SMILES: c1c[nH]cn1 [imidazole]
- pKa: 14.5
